The list shows a part of the results, in another mix than the full data. Calls of active or inactive are those of the source. Cut-off read from the data, not from the text of the source: active = inhibition above about 5% (passing the limit was not always enough); inactive = the rest.
Biological target: Tyrosine-protein kinase ABL1 (Homo sapiens) + Ras and Rab interactor 1 (Homo sapiens) (UniProt P00519+Q13671)
Test: inhibitors of Rin1-Abl protein binding, primary screen, biochemical, TR-FRET (AID 588664)
Settings: at 7.35 µM, active compounds read high

By UniProt entry, the sequences of proteins in these tests, tags left out.
UniProt P00519, whole entry, looked up: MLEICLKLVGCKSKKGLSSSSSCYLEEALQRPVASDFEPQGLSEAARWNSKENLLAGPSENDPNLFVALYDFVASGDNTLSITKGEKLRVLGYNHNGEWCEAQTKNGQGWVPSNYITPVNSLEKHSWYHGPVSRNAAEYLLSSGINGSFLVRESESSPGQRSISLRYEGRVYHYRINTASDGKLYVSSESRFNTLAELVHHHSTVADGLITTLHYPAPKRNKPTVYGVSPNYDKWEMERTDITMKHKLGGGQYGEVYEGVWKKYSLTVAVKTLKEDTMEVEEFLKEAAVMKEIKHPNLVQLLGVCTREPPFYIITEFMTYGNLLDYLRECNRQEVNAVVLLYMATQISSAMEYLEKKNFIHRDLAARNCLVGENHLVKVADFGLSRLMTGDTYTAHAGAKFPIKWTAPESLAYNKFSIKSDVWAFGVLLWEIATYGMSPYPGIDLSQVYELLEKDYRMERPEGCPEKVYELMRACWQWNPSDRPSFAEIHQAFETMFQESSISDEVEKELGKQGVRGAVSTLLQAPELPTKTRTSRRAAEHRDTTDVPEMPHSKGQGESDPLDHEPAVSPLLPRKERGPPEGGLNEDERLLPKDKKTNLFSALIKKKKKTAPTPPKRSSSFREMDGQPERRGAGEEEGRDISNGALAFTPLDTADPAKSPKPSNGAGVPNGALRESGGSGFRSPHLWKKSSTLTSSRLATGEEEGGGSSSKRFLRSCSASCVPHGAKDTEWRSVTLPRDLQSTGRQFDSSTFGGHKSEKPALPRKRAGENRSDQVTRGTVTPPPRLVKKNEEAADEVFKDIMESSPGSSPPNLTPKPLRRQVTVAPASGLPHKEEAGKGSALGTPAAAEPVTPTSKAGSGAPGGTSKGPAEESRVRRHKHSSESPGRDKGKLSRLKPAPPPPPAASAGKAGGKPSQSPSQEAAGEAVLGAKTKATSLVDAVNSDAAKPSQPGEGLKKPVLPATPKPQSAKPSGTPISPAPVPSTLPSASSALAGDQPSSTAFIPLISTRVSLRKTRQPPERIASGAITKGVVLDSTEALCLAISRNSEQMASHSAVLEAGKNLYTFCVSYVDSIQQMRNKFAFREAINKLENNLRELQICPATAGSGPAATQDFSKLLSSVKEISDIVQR
UniProt Q13671, whole entry, looked up: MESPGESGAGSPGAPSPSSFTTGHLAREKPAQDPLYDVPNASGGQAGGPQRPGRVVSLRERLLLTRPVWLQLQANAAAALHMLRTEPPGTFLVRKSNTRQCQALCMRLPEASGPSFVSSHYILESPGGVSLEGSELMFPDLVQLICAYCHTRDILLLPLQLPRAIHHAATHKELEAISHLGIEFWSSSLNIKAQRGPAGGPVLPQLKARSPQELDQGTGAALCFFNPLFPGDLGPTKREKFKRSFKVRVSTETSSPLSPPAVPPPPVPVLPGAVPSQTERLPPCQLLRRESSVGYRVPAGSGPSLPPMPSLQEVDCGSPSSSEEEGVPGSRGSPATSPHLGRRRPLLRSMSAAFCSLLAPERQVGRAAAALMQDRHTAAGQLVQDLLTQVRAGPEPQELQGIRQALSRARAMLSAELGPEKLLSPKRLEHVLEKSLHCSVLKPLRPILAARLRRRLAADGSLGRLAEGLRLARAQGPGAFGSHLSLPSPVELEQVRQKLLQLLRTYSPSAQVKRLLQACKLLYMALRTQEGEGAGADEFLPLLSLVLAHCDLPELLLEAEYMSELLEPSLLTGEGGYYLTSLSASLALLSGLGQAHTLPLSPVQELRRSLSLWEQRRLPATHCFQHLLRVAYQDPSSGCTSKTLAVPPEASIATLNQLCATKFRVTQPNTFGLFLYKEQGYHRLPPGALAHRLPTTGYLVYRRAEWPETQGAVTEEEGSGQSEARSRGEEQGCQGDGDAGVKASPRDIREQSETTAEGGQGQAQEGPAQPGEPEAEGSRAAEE

SMILES	inhibition
CCCCn1nnnc1C(c1cccc(OC)c1OC)N1CCC(n2c(=O)[nH]c3ccccc32)CC1 (stereo not given)	inactive: 10.3%
O=C(OC1CN2CCC1CC2)C1c2ccccc2C=Cc2ccccc21 (stereo not given)	inactive: -1.46%
O=c1[nH]c2ccccc2n1C1CCN(C(c2cccs2)c2nnnn2C2CCCC2)CC1 (stereo not given)	inactive: 6.99%
O=C(NCC1(N2CCOCC2)CCCCC1)c1cc(Br)ccc1Cl	inactive: -0.26%
CCCCn1nnnc1C(c1ccccc1)N1CCC(n2c(=O)[nH]c3ccccc32)CC1 (stereo not given)	inactive: 4.04%
COc1cc(C(=O)NCC2(N3CCOCC3)CCCCC2)cc(OC)c1C	inactive: 2.36%
COc1ccc(C(=O)NCC2(N3CCOCC3)CCCCC2)cc1OC	inactive: -0.98%
O=c1[nH]c2ccccc2n1C1CCN(C(c2ccnc3ccccc23)c2nnnn2C2CCCC2)CC1 (stereo not given)	inactive: 3.71%
O=c1[nH]c2ccccc2n1C1CCN(C(c2cccs2)c2nnnn2C2CCCCC2)CC1 (stereo not given)	active: 27.4%
c1ccc(CN2CCC(Nc3ccccc3)CC2)cc1	inactive: -0.24%
CCCN1CCC(Nc2cc(OC)cc(OC)c2)CC1	inactive: 0.36%
O=c1[nH]c2ccccc2n1C1CCN(C(c2ccccc2)c2nnnn2C2CCCC2)CC1 (stereo not given)	inactive: 7.02%
Cc1cc(N(CCCl)CCCl)ccc1C=O	inactive: 5.71%
CN(C)C1(CNC(=O)c2cccc(C#N)c2)CCCCC1	inactive: 2.18%
CC(C)(C)n1nnnc1C(c1cccc2ccccc12)N1CCC(n2c(=O)[nH]c3ccccc32)CC1 (stereo not given)	inactive: 4.2%
CC(C)(C)OC(=O)N1CCC(N(C(=O)c2ccccc2)c2ccc(Cl)cc2)CC1	inactive: -1.52%
N#Cc1ccc(C(=O)NCC2(N3CCCCC3)CCCCC2)cc1	inactive: 1.08%
O=C(NCC1(N2CCCCC2)CCCCC1)c1cccc(C(F)(F)F)c1	inactive: 3.62%
COc1ccc(NC2CCN(C(=O)OC(C)(C)C)CC2)cc1	inactive: 0.23%
CC(C)c1ccc(C(=O)NCC2(N3CCOCC3)CCCCC2)cc1	inactive: 0.27%
CN1CCN(CCOC(=O)C(O)(c2ccccc2)c2ccccc2)CC1	inactive: -0.02%
CCCCn1nnnc1C(c1cccc2ccccc12)N1CCC(n2c(=O)[nH]c3ccccc32)CC1 (stereo not given)	inactive: -1.32%
O=C(NCC1(N2CCOCC2)CCCCC1)c1cc(=O)[nH]c2ccccc12	inactive: -0.79%
COc1cc(C(=O)NCC2(N3CCCCC3)CCCCC2)ccc1OC(F)F	inactive: 2.1%
CC(C)(C)n1nnnc1C(c1ccccc1OC(F)(F)F)N1CCC(n2c(=O)[nH]c3ccccc32)CC1 (stereo not given)	inactive: 2.77%

From PubChem BioAssay AID588664 (The Scripps Research Institute Molecular Screening Center, 2011)
